Inhibition of aggregation data for 1 compound are collected here from PubChem BioAssay AID483 (Columbia University Molecular Screening Center, 2006).

The entries are a selection whose mix differs from that of the whole data set. Activity calls are given as the source filed them.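 The calls were made as follows: active = visual image review flags a hit and inhibition of aggregation exceeds 20%; inconclusive = visual hit but inhibition at or below 20%; inactive = no hit on visual image review.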

The nature of this assay: inhibitors of mutant huntingtin aggregation, primary screen, imaging, exon1htt(103Q)mCFP cells, high-content imaging (AID 483).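 Also: compound exposure lasted 3 days before fixation.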 The following applies: exon1htt(103Q)mCFP cell line, aggregate imaging; at 2 µM; active compounds read high.
Take `Fc1ccccc1NC1CCN(Cc2ccccc2)CC1`: the inhibition of aggregation was inactive: 11.3%.
